PubChem BioAssay AID868 (SRMLSC, 2007)
This is a selection; strong and weak results do not stand in their true shares. Calls of active or inactive are those of the source.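 The calls were made as follows: active = inhibition above a set limit, 3 SD over mean compound inhibition (cut at about 8.4% in these data); inactive = the rest.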

assay: inhibitors of the yeast RAM network, primary screen, dse1pr::URA3 reporter, 5-FOA selection (AID 868);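 also: 0% = DMSO-only wells with no growth and 100% = 10 µM 1-NA-PP1 full growth; inhibition rescues growth on 5-FOA so higher OD means more RAM inhibition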; conditions: S. cerevisiae dse1pr::URA3 reporter, 5-FOA growth OD615, 2 d; at 50 µM; hits give high values; analog-sensitive cbk1-as2 kinase mutant strain

Structure (SMILES)	inhibition
CC(C)CC(=O)NC(Sc1ccc(Cl)cc1)C(Cl)(Cl)Cl (stereo not given)	inactive: 1.4%
O=C(NC(Sc1ccncn1)C(Cl)(Cl)Cl)c1ccccc1 (stereo not given)	inactive: 0.69%
Cc1c2non([O-])c-2c(C)[n+](=O)[n+]1[O-]	inactive: -1.72%
Oc1ccccc1CNc1ccccn1	inactive: 0.91%
COc1ccc(C2=NCC(CBr)S2)cc1 (stereo not given)	inactive: 0.83%
CC(=O)N1C2C3N(C(C)=O)C1C1N(C(C)=O)C(C(N1C(C)=O)N3C(C)=O)N2C(C)=O	inactive: 3.15%
O=[N+]([O-])c1cccc2n[nH]nc12	inactive: -0.22%
O=[N+]([O-])c1cc([N+](=O)[O-])c(CCNc2ccccc2)c([N+](=O)[O-])c1	inactive: 3%
CCc1nc2c(n1)c1c(non1O)c1c2no[n+]1[O-]	inactive: 0.93%
Cc1ccc(NP(=O)(Oc2ccccc2)Oc2ccccc2)nc1	inactive: 1.94%
CCN(/C(=N/P(=O)(N1CCOCC1)N1CCOCC1)N1CCOCC1)c1ccc(OC)cc1	inactive: 1.46%
CN(C)C(=O)OCCc1n(C)cc[n+]1C	inactive: 1.57%
CC(C)=N/N=C(\N)N[N+](=O)[O-]	inactive: 0.92%
CC1CCN(C(=O)Oc2c(Cl)cc(Cl)c3cccnc23)CC1	inactive: -1.86%
O=[N+]([O-])c1ncn(CCn2ncnc2[N+](=O)[O-])n1	inactive: 1.83%
Cc1cc(SC(NC(=O)c2ccccc2)C(Cl)(Cl)Cl)nc(C(C)C)n1 (stereo not given)	inactive: 0.24%
Cc1cc(SC(NC=O)C(Cl)(Cl)Cl)ncn1 (stereo not given)	inactive: 0.49%
O=P(Nc1ccccn1)(c1cccc2ccccc12)c1cccc2ccccc12	inactive: 0.38%
COP1(=S)c2c(C)nn(CCC#N)c2N=C(c2ccc(F)cc2)N1C (stereo not given)	inactive: 0.88%
O=C(COc1ccccc1)OC1CN2CCC1CC2 (stereo not given)	inactive: 0.8%
CCC(C)N(CC(C)C)C(=S)SC(NC(C)=O)C(Cl)(Cl)Cl (stereo not given)	inactive: 0.49%
Cc1cc(=O)[nH]c(N[N+](=O)[O-])n1	inactive: -0.13%
O=C(OC1CN2CCC1CC2)C12CC3CC(CC(C3)C1)C2 (stereo not given)	inactive: 0.55%
Cc1c2c(nc3ccccc13)SC(C(Cl)Cl)C2 (stereo not given)	inactive: -0.62%
COc1ccc2nc(NP(=O)(c3ccccc3)c3ccccc3)sc2c1	inactive: 1.7%

Structure (SMILES)	inhibition
COc1ccc(N/C(=N/P(=O)(N2CCOCC2)N2CCOCC2)N2CCOCC2)cc1	inactive: 0.28%
Cc1ccc2nc3c(c(C)c2c1)CC(C(Cl)Cl)S3 (stereo not given)	inactive: 1.45%
ClCCSc1nnc(-c2cccnc2)o1	inactive: 0.25%
O=[N+]([O-])c1cc([N+](=O)[O-])c(-c2ccn[nH]2)s1	inactive: -1.25%
CC(C)NC(=O)NP(=O)(Oc1ccccc1)Oc1ccccc1	inactive: 3.52%
CCN(CC)C(=S)SC(NC=O)C(Cl)(Cl)Cl (stereo not given)	inactive: 0.26%
O=P(Nc1nccs1)(Oc1ccccc1)Oc1ccccc1	inactive: 1.38%
O=P(Nc1nccs1)(c1ccccc1)c1nc2ccccc2s1 (stereo not given)	inactive: -0.11%
CCOP1(=S)c2c(C)nn(CCC#N)c2N=C(c2ccccc2F)N1C (stereo not given)	inactive: 0.88%
O=[N+]([O-])c1ccc2c(c1)nnn2O	inactive: -0.88%
CCOP1(=S)c2c(C)nn(CCC#N)c2N=C(c2ccc(F)cc2)N1C (stereo not given)	inactive: 1.67%
COc1cc(C(=O)NCC2(N3CCOCC3)CCCCC2)cc(Cl)c1OC(C)C	inactive: 0.83%
Cc1cccc(OCC(=O)OC2CN3CCC2CC3)c1 (stereo not given)	inactive: 2.31%
Cc1ccc(NCCc2c([N+](=O)[O-])cc([N+](=O)[O-])cc2[N+](=O)[O-])cc1	inactive: 6.93%
CCOP(=O)(Nc1cccc2ccccc12)OCC	inactive: 2.95%
COc1cc(C2NCCC3(OCCO3)C2(C)C)cc(OC)c1OC (stereo not given)	inactive: 1.03%
O=P1(Nc2ccccn2)COc2ccccc2OC1	inactive: 1.01%
Clc1n[nH]nc1-c1nn[nH][15n]1	inactive: 0.35%
CC(C)/C=N\N=C(\N)N[N+](=O)[O-]	inactive: 0.91%
CC1CCC(C(C)C)C(OP(=O)(Nc2ccccn2)c2ccccc2)C1 (stereo not given)	inactive: 0.13%
Cc1nn(-c2ccccc2)c2c1P(=O)(N1CCOCC1)N(C)C(c1ccccc1)=N2 (stereo not given)	inactive: 1.18%
CN(C)C1(CNC(=O)c2ccc(S(C)(=O)=O)cc2)CCCCC1	inactive: 1.39%
O=P1(Nc2ncccn2)COc2ccccc2OC1	inactive: 1.01%
Cc1ccc(OCC(=O)OC2CN3CCC2CC3)cc1 (stereo not given)	inactive: 2.64%
O=P1(Nc2ccc(Br)cn2)COc2ccccc2OC1	inactive: 0.95%
